From ChEMBL document CHEMBL1137610, “Development of novel enkephalin analogues that have enhanced opioid activities at both mu and delta opioid receptors” (2007)
Only a part of the results on these compounds is given; other tests are left out.

Chains of the proteins cited; added tags and fusions are not shown.
UniProt P41143, whole entry: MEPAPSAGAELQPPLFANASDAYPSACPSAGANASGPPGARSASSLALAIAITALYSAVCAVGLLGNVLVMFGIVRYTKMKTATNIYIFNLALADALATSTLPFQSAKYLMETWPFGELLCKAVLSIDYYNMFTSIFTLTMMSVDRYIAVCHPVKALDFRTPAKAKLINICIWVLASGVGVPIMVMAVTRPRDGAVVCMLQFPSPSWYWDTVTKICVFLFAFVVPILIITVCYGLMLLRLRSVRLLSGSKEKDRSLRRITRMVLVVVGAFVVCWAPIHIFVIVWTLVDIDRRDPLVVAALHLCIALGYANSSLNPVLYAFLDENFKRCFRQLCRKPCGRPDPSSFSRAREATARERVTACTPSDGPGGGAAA
UniProt P33535, whole entry: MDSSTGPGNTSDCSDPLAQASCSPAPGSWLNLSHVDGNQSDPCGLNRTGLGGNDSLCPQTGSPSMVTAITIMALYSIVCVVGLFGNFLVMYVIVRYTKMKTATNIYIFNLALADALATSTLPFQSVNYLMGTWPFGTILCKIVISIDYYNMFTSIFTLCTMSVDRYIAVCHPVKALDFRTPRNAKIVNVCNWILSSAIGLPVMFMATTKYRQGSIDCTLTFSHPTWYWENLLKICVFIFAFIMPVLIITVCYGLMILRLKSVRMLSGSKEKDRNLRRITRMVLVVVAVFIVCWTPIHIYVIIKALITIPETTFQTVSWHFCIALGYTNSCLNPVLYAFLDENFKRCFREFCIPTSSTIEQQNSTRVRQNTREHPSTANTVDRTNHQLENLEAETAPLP

Tests used:
[1] = biological target: Delta-type opioid receptor (Homo sapiens, UniProt P41143); experiment: Agonist activity at human delta-opioid receptor expressed in CHO cells after 90 mins by [35S]GTP-gamma-S assay
Mu-type opioid receptor = Mu-type opioid receptor (Rattus norvegicus, UniProt P33535); experiment: Agonist activity at rat mu-opioid receptor expressed in CHO cells after 90 mins by [35S]GTP-gamma-S assay

SMILES: C[C@@H](NC(=O)[C@@H](N)Cc1ccc(O)cc1)C(=O)NCC(=O)N[C@@H](Cc1ccccc1)C(=O)NC1CCN(CCc2ccccc2)CC1
- EC50 [1]: 510 nM
- EC50 (Mu-type opioid receptor): 125 nM
